Assay results: patent US9402878B2, “Depsipeptide and uses thereof” (priority 2012, dated 2016)

By UniProt entry, the sequences of proteins in these tests, tags left out.
UniProt P11712, whole entry, looked up: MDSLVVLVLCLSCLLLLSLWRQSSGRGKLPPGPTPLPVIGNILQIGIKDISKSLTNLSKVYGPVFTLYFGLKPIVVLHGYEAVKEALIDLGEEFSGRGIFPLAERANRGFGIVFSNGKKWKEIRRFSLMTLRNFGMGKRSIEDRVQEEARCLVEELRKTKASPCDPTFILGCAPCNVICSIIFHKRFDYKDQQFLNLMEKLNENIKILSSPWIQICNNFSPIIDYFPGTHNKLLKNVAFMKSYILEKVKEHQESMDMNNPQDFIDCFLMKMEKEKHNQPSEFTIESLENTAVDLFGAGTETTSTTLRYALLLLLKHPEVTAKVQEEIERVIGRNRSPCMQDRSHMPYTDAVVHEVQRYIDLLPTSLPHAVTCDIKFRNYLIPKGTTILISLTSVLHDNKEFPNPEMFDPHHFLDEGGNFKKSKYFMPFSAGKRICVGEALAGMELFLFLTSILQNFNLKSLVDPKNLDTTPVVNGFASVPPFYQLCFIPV

Target: Cyp2C9 (Homo sapiens (Human), UniProt P11712)
Assay: Cytochrome P450 inhibitory activity, liver microsomes

Substance: sulphaphenazole
- CYP2C9 % inhibition compared to vehicle (conc. 1 (1 μM)): 87.5%
- CYP2C9 % inhibition compared to vehicle (conc. 2 (0.1 μM)): 55.6%
